# In patent US20050019869A1, “Chimeric neuropeptide Y receptors” (priority 2000, published 2005):
# Protein sequences, listed by entry. Tags and fused reporters are not part of them. Lines headed by an entry give the natural chain unless they say otherwise; changes in a name come on top.
# UniProt Q15761: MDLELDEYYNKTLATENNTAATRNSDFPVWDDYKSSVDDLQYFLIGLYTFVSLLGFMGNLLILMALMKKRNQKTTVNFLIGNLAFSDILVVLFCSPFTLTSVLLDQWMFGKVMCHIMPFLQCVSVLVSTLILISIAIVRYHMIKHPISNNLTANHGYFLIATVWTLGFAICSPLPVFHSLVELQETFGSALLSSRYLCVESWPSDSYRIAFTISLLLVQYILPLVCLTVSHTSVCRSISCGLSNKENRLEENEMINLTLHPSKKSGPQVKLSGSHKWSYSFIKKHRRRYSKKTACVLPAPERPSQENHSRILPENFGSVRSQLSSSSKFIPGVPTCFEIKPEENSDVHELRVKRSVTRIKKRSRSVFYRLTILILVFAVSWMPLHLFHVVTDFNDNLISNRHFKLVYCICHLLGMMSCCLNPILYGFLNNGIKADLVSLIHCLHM
# UniProt P25929: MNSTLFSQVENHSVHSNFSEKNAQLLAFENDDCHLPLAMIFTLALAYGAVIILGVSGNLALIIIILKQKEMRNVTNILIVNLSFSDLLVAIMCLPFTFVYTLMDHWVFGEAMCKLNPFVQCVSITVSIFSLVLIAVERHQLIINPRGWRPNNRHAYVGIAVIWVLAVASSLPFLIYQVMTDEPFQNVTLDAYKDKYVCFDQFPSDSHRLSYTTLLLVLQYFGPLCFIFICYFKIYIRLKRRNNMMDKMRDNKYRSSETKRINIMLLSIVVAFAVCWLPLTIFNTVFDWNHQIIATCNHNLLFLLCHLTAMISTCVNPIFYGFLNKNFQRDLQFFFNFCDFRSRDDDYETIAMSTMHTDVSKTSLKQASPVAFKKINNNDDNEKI
# How the values were obtained:
# Conditions in all cases: displacement of 0.050 nM [125I]PYY (porcine), 2 h room temperature
# NPY5 receptor = target: T1, NPY5 receptor (Homo sapiens, UniProt Q15761); assay: [125I]PYY competition binding, Sf9 membranes expressing NPY5
# T1 construct: made in house; host or cells: Sf9 insect cells infected with recombinant baculovirus; purified membranes
# T1 sequence (Q15761 with tags, fused parts or gaps): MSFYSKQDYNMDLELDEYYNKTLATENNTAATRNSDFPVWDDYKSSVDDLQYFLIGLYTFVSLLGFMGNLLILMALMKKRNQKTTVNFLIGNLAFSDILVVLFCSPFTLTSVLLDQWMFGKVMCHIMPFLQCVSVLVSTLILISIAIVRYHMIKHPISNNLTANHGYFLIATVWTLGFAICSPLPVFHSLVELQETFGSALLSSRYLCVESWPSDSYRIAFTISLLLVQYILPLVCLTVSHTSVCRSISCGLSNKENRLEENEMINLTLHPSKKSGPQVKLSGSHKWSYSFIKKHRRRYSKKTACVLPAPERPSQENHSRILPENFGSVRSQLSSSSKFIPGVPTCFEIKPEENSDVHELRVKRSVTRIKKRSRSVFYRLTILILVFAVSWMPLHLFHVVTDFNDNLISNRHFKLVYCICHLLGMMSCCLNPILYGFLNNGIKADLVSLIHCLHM
# [1] = target: T2, NPY5ΔY1IC3 chimeric receptor (Homo sapiens, UniProt Q15761, DEL238-360/INS235IRLKRRNNMMDKMRDNKY/K361S); assay: [125I]PYY competition binding, Sf9 membranes expressing NPY5ΔY1IC3
# T2 construct: made in house; host or cells: Sf9 insect cells infected with recombinant baculovirus (pBacPAK9 vector); purified membranes
# T2 sequence (Q15761 with tags, fused parts or gaps INS235IRLKRRNNMMDKMRDNKY/DEL238-360/K361S): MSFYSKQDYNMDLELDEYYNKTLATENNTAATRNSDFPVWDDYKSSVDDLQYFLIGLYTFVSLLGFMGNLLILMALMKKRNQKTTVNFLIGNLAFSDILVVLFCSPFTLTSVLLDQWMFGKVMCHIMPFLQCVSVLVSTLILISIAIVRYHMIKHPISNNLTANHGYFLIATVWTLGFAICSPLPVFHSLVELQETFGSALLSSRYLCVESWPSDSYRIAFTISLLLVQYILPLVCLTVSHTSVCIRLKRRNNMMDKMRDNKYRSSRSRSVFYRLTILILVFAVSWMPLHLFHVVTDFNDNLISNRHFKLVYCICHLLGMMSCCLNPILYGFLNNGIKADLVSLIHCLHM
# [2] = target: T3, NPY5ΔY1CT chimeric receptor (Homo sapiens, UniProt P25929+Q15761); assay: [125I]PYY competition binding, Sf9 membranes expressing NPY5ΔY1CT
# T3 construct: made in house; host or cells: Sf9 insect cells infected with recombinant baculovirus (pBacPAK9 vector); purified membranes
Substance,Ki (NPY5 receptor) [nM],Ki [1] [nM],Ki [2] [nM]
human NPY 13-36 [HNPY 13-36],20,10.3,23.4
human NPY 3-36 [HNPY 3-36],2.1,1.2,1.9
human NPY 1-36 [HNPY 1-36],0.44,0.57,0.4
human D-Trp 32 NPY,8,2.3,15.6
